In ChEMBL document CHEMBL1127358 (J Med Chem, 1994) one finds Ratio data, which are given here for one compound.

For this test, the system named is Muscarinic acetylcholine receptors M2 & M3 (Cavia porcellus). Nature of the test: Selectivity ratio is the antilog of the difference between the pA2 values at guinea pig left atrium and ileum muscarinic receptors.

As to `CN(CCCCCCCCN(C)CCCCCCNCC(=O)N1c2ccccc2C(=O)Nc2cccnc21)CCCCCCNCC(=O)N1c2ccccc2C(=O)Nc2cccnc21`, the Ratio came out at 170.
